Data as given in ChEMBL document CHEMBL4196051, “Pyrazole-pyrazoline as promising novel antimalarial agents: A mechanistic study” (Eur J Med Chem, 2018).

Columns and labels:
mu-oxodimeric heme = experiment: Binding affinity to mu-oxodimeric heme in 0.1M NaOH solution at pH 5.8 by titration analysis
Heme [1] = experiment: Binding affinity to monomeric heme in DMSO/HEPES buffer solution at pH 7.4 by titration analysis
[2] = Resistance Index, ratio of EC50 for chloroquine-resistant Plasmodium falciparum RKL9 to EC50 for chloroquine-sensitive Plasmodium falciparum 3D7; type: functional
Heme [3] = experiment: Binding affinity to monomeric heme in DMSO/HEPES buffer solution at pH 5.6 by titration analysis

In the case of `CCN(CC)CCCC(C)Nc1ccnc2cc(Cl)ccc12` (centres undefined) [CHLOROQUINE], the log K (mu-oxodimeric heme) is reported as 5.68, the log K (Heme [1]) is reported as 5.23 and the Ratio EC50 [2] is reported as 3.78. The log K (Heme [3]) was 4.72.
